Experimental findings from patent US5643784A, “Indan derivatives” (H, Lundbeck A/S, priority 1990, dated 1997) are described below.

By UniProt entry, the sequences of proteins in these tests, tags left out.
UniProt P14842, whole entry: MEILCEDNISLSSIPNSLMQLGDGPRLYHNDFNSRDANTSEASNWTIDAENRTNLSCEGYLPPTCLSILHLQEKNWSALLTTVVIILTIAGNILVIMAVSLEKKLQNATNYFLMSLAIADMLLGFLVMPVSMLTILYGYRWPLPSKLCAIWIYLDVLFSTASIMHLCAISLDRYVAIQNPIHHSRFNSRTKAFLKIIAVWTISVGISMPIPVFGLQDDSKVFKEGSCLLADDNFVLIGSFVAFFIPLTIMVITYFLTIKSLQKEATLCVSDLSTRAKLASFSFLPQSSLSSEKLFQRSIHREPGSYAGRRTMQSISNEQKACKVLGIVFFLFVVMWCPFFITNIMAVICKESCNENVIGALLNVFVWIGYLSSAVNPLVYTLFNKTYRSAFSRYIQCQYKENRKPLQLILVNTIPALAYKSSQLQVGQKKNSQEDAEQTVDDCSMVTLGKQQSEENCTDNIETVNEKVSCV

This experiment concerns the target T1, 5-HT2 receptors (Rattus norvegicus, UniProt P14842).
T1 construct: cortical tissue is dissected and weighed; from tissue; host or cells: cortex of male Wistar rats, crude membranes
Nature of the experiment: Inhibition of 3H-ketanserin binding to 5-HT2 receptors in rat cortex in vitro. The conditions noted are these: 3H-Ketanserin 0.5 nM, 37° C., 30 min, read-out: Receptor Binding, IC50 5-HT2 3H-Ket. The procedure: INHIBITION OF ^3 H-KETANSERIN BINDING TO 5-HT2 RECEPTORS IN RAT CORTEX IN VITRO
By this method the inhibition by drugs of the binding of ^3 H-Ketanserin (0,5 nM) to Serotonin S2 (5-HT2) receptors in membranes from rat is determined in vitro. Method in Hyttel, Pharmacology & Toxicology, 61, 126-129, 1987.
Male Wistar (Mol:Wist) rats (125-250 g) are sacrificed and cortical tissue is dissected and weighed. The tissue is homogenized (Ultra Turrax, 10 sec.) in 10 ml of ice-cold 50 mM tris buffer pH 7.7 (at 25° C.). The centrifuge glassware used in this step has been rinsed by sonication for 10 min. in ethanol. The homogenate is centrifuged twice at 20,000 g for 10 min. at 4° C. with rehomogenization of the pellet in 10 ml ice-cold buffer. The final pellet is homogenized in 500 vol (w/v) ice-cold buffer.
Incubation tubes kept on ice in triplicate receive 100 μl of drug solution in water (or water for total binding) and 2000 μl of tissue suspension (final tissue content corresponds to 4 mg original tissue). […] After shaking for 1 h and storage 2 hrs in the dark the content of radioactivity is determined by liquid scintillation counting. […]
The measured cpm are plotted against drug concentration on semilogarithmic paper and the best fitting S-shaped curve is drawn. […]

In the case of `Cc1nc2sccn2c(=O)c1CCN1CCC(=C(c2ccc(F)cc2)c2ccc(F)cc2)CC1` [Ritanserin, reference compound], the IC50 (in general, the concentration needed to halve the response being measured) was found to be 0.4 nM.
